This experiment concerns the target recombinant human GST-SYK (Homo sapiens (Human), UniProt P43405). Briefly: Homogeneous Time-Resolved Fluorescence (HTRF) Assay for the Recombinant Human Syk Enzyme. The class given is biochemical. As to conditions: GST-SYK 5 pM, ATP 25 μM, biotinylated substrate peptide 250 nM, HTRF signal. Here is the method:
Homogeneous Time-Resolved Fluorescence (HTRF) Assay for the Recombinant Human Syk Enzyme
A recombinant GST-hSYK fusion protein was used to measure potency of compounds to inhibit human Syk activity. The recombinant human GST-SYK (Carna Biosciences #08-176) (5 pM final concentration) was incubated with various concentrations of the inhibitor diluted in DMSO (0.1% final concentration) for 10 minutes at room temperature in 15 mM Tris-HCl (pH 7.5), 0.01% tween 20, 2 mM DTT in 384 well plate format. To initiate the reaction the biotinylated substrate peptide (250 nM final concentration) that contains the phosphorylation site for Syk was added with magnesium (5 mM final concentration) and ATP (25 μM final concentration). Final volume of the reaction was 10 μL. Phosphorylation of the peptide was allowed to proceed for 45′ at room temperature. To quench the reaction and detect the phosphorylated product, 2 nM of a Europium-anti-phosphotyrosine antibody (Perkin Elmer #AD0161) and 70 nM SA-APC (Perkin-Elmer #CR130-100) were added together in 15 mM Tris pH 7.5, 40 mM EDTA, 0.01% tween 20. Final volume of the quenching solution was 10 μL.
The resulting HTRF signal was measured after 30 minutes on an EnVision (Perkin-Elmer) reader using a time-resolved fluorescence protocol. Table A below lists activities as IC50 values (nM) for representative compounds of the invention.
A general note: In TR-FRET formats the signal depends on donor and acceptor labels being close together.

Usually IC50 stands for the concentration needed to halve the response being measured.

As to “(1R,4S or 1S,4R)-4-hydroxy-4-{5-[4′-(methoxymethyl)-5-{[4-fluoromethyl)pyrimidin-2-yl]amino}biphenyl-3-yl]-1,3-thiazol-2-yl}-2,2-dimethylcyclohexanecarboxylic acid [Example 2.13]”, the half-maximal inhibitory concentration (IC50) was 10.2 nM.

For the origin of these results see US9499534B2, “Thiazole-substituted aminopyrimidines as spleen tyrosine kinase inhibitors” (priority 2013, dated 2016).
